Data published in ChEMBL document CHEMBL3352445, “Inhibition of activated STAT5 in Bcr/Abl expressing leukemia cells with new pimozide derivatives” (Bioorg Med Chem Lett, 2014).
Some compounds may have been tested in ways that are not shown here.

Experiments:
K562 [1] = assay: Cytotoxicity against human K562 cells after 48 hrs by trypan blue dye exclusion test
K562 [2] = assay: Induction of apoptosis in human K562 cells by annexin V/propidium iodide staining-based flow cytometric analysis

With `Oc1nc2ccccc2n1C1CCN(Cc2ccccc2)CC1` the IC50 (K562 [1]) was > 50 µM and the AC50 (K562 [2]) was > 50 µM.
